Laboratory results from paper PMC3961306, “Comparison of the Cancer Gene Targeting and Biochemical Selectivities of All Targeted Kinase Inhibitors Approved for Clinical Use” (PLoS ONE, 2014).

Protein sequences, listed by entry. Tags and fused reporters are not part of them. Residues count along the entry.
UniProt P08581, 25-1390 Y1235D: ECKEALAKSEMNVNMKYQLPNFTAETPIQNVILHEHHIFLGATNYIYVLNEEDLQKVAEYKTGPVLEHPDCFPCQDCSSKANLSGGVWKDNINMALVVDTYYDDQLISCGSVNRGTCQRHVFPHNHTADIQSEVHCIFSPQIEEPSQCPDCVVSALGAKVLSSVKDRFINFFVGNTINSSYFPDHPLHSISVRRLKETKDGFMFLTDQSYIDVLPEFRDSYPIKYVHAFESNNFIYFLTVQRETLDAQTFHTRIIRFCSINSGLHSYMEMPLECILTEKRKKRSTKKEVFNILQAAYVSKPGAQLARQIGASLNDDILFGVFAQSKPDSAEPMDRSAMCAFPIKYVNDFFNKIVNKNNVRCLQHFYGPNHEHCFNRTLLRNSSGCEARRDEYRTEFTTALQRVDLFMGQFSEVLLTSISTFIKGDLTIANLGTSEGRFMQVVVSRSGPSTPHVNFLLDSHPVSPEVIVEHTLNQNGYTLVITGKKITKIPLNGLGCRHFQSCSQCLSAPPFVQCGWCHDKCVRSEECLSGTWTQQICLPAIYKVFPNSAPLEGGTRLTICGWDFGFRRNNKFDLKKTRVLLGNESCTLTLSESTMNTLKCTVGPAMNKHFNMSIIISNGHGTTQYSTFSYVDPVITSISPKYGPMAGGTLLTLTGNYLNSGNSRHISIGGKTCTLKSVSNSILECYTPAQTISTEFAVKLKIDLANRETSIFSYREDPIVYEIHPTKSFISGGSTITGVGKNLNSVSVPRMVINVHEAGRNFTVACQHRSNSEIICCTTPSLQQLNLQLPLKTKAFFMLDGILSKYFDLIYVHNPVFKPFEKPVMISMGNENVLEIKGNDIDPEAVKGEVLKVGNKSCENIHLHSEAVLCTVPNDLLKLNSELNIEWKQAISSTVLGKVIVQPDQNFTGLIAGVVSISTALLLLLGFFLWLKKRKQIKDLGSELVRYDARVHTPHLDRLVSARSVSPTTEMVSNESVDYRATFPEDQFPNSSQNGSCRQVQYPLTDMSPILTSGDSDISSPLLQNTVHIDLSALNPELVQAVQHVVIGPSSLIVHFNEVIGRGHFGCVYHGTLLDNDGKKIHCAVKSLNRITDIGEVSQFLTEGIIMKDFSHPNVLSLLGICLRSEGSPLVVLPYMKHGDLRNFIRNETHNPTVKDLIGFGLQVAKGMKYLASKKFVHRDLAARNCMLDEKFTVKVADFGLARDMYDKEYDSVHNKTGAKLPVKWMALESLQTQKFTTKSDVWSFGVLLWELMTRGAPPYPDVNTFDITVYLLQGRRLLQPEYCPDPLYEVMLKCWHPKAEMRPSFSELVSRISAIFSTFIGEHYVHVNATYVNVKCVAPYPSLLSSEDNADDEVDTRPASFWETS
UniProt P10721, 26-976 V560G: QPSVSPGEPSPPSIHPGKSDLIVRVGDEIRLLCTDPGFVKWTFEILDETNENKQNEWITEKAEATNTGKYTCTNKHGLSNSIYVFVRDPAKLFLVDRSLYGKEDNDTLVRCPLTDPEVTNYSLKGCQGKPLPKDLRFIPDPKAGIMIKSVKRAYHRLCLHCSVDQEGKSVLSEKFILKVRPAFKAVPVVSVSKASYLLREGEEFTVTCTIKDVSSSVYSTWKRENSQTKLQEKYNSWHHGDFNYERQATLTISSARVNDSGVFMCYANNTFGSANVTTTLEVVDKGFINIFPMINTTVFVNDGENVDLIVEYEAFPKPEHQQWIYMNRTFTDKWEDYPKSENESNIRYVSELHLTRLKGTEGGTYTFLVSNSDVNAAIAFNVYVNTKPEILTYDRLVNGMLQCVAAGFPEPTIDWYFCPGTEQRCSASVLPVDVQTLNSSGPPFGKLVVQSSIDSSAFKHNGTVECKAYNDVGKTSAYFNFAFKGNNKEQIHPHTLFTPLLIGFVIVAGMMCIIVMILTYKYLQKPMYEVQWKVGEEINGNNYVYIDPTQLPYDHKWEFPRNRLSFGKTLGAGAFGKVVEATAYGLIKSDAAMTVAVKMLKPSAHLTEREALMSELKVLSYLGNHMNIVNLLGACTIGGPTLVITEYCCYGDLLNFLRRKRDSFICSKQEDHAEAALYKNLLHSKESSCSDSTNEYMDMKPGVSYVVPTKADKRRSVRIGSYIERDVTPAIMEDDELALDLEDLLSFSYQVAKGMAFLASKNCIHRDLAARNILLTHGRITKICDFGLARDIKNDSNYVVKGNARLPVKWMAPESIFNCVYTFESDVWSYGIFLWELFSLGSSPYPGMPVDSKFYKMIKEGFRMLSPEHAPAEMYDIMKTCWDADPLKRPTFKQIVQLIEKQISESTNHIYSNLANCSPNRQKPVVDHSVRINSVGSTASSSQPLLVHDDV
UniProt O60285, whole entry, stated change not applied: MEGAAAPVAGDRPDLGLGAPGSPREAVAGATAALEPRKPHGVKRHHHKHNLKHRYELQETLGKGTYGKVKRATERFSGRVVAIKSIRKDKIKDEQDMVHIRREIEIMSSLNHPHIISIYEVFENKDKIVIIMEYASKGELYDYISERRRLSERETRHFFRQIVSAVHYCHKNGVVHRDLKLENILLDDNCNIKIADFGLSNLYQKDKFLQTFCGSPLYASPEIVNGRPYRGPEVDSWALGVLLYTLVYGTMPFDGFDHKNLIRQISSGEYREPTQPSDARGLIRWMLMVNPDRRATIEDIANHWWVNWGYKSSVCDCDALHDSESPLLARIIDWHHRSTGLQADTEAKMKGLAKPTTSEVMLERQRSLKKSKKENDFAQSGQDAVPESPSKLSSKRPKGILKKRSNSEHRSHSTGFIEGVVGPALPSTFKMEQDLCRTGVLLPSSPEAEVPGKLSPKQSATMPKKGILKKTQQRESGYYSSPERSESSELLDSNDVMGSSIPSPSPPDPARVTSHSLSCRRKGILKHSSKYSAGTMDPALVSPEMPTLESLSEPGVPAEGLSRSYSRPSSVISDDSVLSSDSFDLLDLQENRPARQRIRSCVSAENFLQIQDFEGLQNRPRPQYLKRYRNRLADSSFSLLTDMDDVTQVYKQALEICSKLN
UniProt P07949, 29-1114 Y791F: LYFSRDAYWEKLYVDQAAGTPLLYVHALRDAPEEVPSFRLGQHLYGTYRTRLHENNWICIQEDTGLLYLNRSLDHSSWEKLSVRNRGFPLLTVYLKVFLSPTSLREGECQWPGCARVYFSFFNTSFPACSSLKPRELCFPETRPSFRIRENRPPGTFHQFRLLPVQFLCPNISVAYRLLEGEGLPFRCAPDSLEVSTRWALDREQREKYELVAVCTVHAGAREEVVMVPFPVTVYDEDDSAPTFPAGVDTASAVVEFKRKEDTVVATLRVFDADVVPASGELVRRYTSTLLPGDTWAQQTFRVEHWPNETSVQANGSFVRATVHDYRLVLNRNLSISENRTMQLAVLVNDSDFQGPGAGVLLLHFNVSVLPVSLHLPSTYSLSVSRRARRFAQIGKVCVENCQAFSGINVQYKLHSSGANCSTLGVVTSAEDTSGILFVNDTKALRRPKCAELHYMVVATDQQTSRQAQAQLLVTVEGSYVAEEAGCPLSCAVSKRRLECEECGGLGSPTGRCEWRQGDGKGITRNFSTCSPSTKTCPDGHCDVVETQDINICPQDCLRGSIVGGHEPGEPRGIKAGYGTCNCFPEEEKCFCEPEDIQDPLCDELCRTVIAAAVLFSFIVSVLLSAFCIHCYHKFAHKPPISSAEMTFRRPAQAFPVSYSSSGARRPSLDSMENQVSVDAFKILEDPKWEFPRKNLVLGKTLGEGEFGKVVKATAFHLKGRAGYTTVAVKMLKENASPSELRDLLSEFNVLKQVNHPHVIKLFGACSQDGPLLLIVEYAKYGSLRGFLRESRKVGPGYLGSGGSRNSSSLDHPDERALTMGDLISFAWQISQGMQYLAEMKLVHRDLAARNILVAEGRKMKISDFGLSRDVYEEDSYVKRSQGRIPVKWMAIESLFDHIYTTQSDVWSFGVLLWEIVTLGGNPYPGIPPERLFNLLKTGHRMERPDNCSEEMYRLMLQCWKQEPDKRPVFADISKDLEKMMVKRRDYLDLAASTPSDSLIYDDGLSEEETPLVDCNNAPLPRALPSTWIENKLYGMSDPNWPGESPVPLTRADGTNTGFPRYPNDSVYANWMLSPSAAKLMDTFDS
UniProt P78368, whole entry, stated change not applied: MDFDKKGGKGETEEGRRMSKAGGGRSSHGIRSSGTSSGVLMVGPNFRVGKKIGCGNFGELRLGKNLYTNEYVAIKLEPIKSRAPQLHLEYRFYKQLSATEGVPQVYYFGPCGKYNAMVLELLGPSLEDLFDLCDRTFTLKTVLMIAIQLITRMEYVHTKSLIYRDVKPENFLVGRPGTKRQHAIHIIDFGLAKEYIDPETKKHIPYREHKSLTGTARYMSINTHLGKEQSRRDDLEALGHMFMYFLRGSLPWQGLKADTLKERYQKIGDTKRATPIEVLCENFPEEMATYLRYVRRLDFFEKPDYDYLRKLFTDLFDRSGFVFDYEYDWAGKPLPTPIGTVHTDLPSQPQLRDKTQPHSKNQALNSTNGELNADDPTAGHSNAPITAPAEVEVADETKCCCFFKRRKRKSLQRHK
UniProt Q05397, whole entry, stated change not applied: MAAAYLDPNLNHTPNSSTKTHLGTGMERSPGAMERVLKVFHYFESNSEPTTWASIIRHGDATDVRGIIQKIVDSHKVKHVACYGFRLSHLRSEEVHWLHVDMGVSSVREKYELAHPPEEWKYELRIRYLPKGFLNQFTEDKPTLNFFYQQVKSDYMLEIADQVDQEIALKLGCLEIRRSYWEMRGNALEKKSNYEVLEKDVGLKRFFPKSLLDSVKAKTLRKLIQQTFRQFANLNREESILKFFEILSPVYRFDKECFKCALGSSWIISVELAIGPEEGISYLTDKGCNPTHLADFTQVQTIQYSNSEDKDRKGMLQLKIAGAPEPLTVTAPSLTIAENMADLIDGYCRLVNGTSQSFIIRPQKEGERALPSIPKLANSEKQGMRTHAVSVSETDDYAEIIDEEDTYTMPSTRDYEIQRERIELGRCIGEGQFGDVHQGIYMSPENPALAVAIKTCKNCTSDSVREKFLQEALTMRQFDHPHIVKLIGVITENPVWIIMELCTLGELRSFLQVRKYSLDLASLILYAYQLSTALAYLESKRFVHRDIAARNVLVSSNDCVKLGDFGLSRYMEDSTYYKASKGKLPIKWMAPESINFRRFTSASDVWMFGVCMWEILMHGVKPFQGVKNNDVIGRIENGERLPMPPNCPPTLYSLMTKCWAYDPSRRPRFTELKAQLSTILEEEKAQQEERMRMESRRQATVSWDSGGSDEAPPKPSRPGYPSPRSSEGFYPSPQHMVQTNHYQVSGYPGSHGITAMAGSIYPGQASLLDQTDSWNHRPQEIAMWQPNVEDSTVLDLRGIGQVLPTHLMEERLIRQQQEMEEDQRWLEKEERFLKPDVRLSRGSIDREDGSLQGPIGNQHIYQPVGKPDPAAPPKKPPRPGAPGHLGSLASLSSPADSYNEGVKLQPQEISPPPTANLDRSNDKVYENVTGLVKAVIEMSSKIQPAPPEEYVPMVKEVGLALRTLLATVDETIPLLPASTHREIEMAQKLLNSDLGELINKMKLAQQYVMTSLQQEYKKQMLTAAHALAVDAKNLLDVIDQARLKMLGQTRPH
UniProt Q8NE63, whole entry, stated change not applied: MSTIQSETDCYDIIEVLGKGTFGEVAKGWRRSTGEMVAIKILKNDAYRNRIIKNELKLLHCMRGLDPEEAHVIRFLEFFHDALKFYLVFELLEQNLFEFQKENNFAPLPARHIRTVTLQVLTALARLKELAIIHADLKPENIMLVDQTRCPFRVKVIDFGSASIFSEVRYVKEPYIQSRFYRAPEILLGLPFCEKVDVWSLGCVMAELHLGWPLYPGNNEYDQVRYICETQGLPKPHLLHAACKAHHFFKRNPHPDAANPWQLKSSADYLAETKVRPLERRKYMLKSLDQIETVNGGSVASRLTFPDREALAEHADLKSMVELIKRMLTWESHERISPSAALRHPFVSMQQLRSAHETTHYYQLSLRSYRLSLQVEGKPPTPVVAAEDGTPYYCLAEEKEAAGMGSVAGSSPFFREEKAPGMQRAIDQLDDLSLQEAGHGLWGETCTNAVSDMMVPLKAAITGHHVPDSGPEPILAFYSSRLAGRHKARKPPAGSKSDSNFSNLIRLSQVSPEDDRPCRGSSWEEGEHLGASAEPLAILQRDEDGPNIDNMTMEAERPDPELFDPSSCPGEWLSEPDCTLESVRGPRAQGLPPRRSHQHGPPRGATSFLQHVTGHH
UniProt Q9NYA1, whole entry, stated change not applied: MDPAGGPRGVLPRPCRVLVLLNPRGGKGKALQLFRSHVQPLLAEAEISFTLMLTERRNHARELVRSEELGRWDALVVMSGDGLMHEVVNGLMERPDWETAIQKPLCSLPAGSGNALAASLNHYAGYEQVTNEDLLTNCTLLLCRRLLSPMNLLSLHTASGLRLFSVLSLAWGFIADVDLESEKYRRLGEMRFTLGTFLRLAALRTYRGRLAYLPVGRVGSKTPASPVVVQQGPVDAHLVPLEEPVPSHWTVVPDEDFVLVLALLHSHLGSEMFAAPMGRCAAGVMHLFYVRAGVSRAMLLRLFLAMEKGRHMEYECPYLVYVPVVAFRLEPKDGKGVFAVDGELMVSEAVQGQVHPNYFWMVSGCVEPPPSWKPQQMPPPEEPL

Assays:
Test in all cases: Kinase profiling in a biochemical assay panel (mobility shift assays and ELISA), %-inhibition at 1 μM; selectivity entropy
[1] = biological target: panel of more than 300 wild-type and mutant kinases (313 kinase panel) (Homo sapiens, UniProt P07332)
[2] = biological target: panel of more than 300 wild-type and mutant kinases (313 kinase panel) (Homo sapiens, UniProt P08581, Y1235D)
[3] = biological target: panel of more than 300 wild-type and mutant kinases (313 kinase panel) (Homo sapiens, UniProt P10721, V560G)
[4] = biological target: panel of more than 300 wild-type and mutant kinases (313 kinase panel) (Homo sapiens, UniProt P36888)
[5] = biological target: T1, panel of more than 300 wild-type and mutant kinases (313 kinase panel) (Homo sapiens, UniProt P51813)
T1 sequence (P51813 1-675): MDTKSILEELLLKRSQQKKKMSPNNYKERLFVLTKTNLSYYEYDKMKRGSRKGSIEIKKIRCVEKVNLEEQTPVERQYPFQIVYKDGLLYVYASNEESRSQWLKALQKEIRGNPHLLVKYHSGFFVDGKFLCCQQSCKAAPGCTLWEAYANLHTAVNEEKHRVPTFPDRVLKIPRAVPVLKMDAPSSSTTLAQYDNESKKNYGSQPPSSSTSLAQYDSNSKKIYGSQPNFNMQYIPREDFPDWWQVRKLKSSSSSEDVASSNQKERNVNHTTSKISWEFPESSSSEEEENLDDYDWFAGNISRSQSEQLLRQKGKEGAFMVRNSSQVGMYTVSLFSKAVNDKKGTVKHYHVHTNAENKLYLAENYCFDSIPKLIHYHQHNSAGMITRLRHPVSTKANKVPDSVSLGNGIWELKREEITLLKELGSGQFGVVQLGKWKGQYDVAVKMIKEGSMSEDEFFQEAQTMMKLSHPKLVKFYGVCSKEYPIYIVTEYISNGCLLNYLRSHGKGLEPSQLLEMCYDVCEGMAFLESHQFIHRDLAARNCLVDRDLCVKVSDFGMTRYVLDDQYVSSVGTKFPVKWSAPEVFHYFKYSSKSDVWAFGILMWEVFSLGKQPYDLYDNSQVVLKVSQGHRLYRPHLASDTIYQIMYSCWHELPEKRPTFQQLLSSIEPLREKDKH

[6] = biological target: panel of more than 300 wild-type and mutant kinases (313 kinase panel) (Homo sapiens, UniProt O60285); settings: 1 µM
[7] = biological target: panel of more than 300 wild-type and mutant kinases (313 kinase panel) (Homo sapiens, UniProt P06241); settings: 1 µM
[8] = biological target: panel of more than 300 wild-type and mutant kinases (313 kinase panel) (Homo sapiens, UniProt P07949, Y791F); settings: 1 µM
[9] = biological target: panel of more than 300 wild-type and mutant kinases (313 kinase panel) (Homo sapiens, UniProt P24941); settings: 1 µM
[10] = biological target: panel of more than 300 wild-type and mutant kinases (313 kinase panel) (Homo sapiens, UniProt P78368); settings: 1 µM
[11] = biological target: panel of more than 300 wild-type and mutant kinases (313 kinase panel) (Homo sapiens, UniProt Q05397); settings: 1 µM
[12] = biological target: panel of more than 300 wild-type and mutant kinases (313 kinase panel) (Homo sapiens, UniProt Q13164); settings: 1 µM
[13] = biological target: panel of more than 300 wild-type and mutant kinases (313 kinase panel) (Homo sapiens, UniProt Q16288); settings: 1 µM
[14] = biological target: panel of more than 300 wild-type and mutant kinases (313 kinase panel) (Homo sapiens, UniProt Q8N568); settings: 1 µM
[15] = biological target: panel of more than 300 wild-type and mutant kinases (313 kinase panel) (Homo sapiens, UniProt Q8NE63); settings: 1 µM
[16] = biological target: panel of more than 300 wild-type and mutant kinases (313 kinase panel) (Homo sapiens, UniProt Q9H4A3); settings: 1 µM
[17] = biological target: panel of more than 300 wild-type and mutant kinases (313 kinase panel) (Homo sapiens, UniProt Q9NYA1)
[18] = biological target: panel of more than 300 wild-type and mutant kinases (313 kinase panel) (Homo sapiens, UniProt Q9UL54); settings: 1 µM

Compound	%-inhibition of NuaK1 [6]	%-inhibition of FYN [7]	%-inhibition of FES ([1]; 1 µM)	%-inhibition of RET(Y791F) [8]	%-inhibition of KIT(V560G) ([3]; 1 µM)	%-inhibition, CDK2/CycA2 [9]	%-inhibition, CDK2/CycE1 [9]	%-inhibition, BMX ([5]; 1 µM)	%-inhibition, CK1γ2 [10]	%-inhibition of FAK [11]	%-inhibition of Erk5 [12]	%-inhibition of TRKC [13]	%-inhibition of DCAMKL2 [14]	%-inhibition of HIPK4 [15]	%-inhibition of WNK1 [16]	%-inhibition of TAOK2 [18]	also measured
CNC(=O)c1ccccc1Sc1ccc2c(/C=C/c3ccccn3)n[nH]c2c1 [axitinib]																	%-inhibition of FES ([1]; kinase FES, compound at 1 μM): 0.247%; %-inhibition of MET(Y1235D) ([2]; kinase MET(Y1235D), compound at 1 μM): 20%; %-inhibition of KIT(V560G) ([3]; kinase KIT(V560G), compound at 1 μM): 96%; %-inhibition of FLT3 ([4]; kinase FLT3, compound at 1 μM): 72%; %-inhibition, BMX ([5]; kinase BMX, 1 μM compound): 16%
COc1cc2ncnc(Nc3ccc(F)c(Cl)c3)c2cc1OCCCN1CCOCC1 [gefitinib]	13%	24%	8.5%	56%	23%	5%	-5%	10%	26%	28%	19%	7.46%	2.38%	83%	2.48%	-7%	%-inhibition of SPHK1 ([17]; kinase SPHK1, 1 μM): -15%
C[C@@H]1CCN(C(=O)CC#N)C[C@@H]1N(C)c1ncnc2[nH]ccc12 [tofacitinib]	39%	33%	-0.74%	13%	-1.06%	-5.49%	-8%	3%	-3.77%	-5.36%	-0.709%	3.69%	-0.503%	-6%	-3.25%	1.78%	%-inhibition of MET(Y1235D) ([2]; 1 µM): 1.4%; %-inhibition of FLT3 ([4]; 1 µM): 9%; %-inhibition of SPHK1 ([17]; 1 µM): -8%
